Experimental data published in patent US7935722B2 (Eli Lilly and Company, priority 2005, dated 2011).

By UniProt entry, the sequences of proteins in these tests, tags left out.
UniProt P10275, whole entry: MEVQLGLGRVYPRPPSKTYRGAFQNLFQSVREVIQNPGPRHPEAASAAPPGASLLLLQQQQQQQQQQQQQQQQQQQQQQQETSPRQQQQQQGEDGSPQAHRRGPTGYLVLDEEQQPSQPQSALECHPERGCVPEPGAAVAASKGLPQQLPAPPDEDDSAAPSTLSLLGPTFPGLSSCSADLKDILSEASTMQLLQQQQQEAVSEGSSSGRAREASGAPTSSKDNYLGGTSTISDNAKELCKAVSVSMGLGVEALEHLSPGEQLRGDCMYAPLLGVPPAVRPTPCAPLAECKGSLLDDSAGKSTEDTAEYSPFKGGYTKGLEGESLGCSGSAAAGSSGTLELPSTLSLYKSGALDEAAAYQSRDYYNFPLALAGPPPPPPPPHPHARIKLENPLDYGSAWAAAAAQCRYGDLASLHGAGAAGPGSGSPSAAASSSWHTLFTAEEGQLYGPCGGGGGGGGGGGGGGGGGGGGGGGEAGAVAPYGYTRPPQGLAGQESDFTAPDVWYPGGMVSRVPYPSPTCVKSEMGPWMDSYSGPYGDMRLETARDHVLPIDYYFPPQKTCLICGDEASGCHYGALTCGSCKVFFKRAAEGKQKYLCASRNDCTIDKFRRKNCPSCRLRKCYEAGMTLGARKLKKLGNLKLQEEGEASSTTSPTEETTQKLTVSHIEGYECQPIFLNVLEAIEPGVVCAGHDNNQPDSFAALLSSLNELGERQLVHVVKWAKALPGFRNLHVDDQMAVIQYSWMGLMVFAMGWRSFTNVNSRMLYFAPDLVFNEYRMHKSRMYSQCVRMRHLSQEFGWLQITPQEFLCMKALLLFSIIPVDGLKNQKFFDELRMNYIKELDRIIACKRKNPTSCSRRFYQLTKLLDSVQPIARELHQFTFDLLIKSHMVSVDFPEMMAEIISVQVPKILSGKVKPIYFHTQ

Tests used:
[1] = target: human androgen receptor (AR) (Homo sapiens, UniProt P10275); assay: C2C12 AR/ARE reporter assay; format: cell-based; details: for C2C12 % Efficacy: average of n trials; for EC50: read-out: C2C12 EC50, average of n trials
[2] = target: human AR (androgen receptor) (Homo sapiens, UniProt P10275); assay: Steroid hormone nuclear receptor binding assay, AR binding; details: read-out: AR binding Ki; average of n trials

SMILES | C2C12 % Efficacy [1] | EC50 [1] | Ki [2]
COc1ccccc1Cn1c2c(c3cc(C)ccc31)CC(NC(=O)C(C)C)CC2 (stereo not shown) | 63.6% | 0.941 µM | 0.121 µM
O=C(NC1CCc2c(c3cc(Br)ccc3n2Cc2cccc(F)c2)C1)C(F)(F)F (stereo not shown) [Example 174] | 13.8% |  | 0.0297 µM
COc1cccc(Cn2c3c(c4cc(C)ccc42)CC(NC(=O)C(C)C)CC3)c1 (stereo not shown) | 71.6% |  | 0.0822 µM
CC(C)C(=O)NC1CCc2c(c3cc(Cl)ccc3n2Cc2ccccc2C#N)C1 (stereo not shown) | 43.2% | 0.56 µM | 0.0096 µM
